Read-outs that look alike come from different tables or passages of the source.
What was measured:
[1] = Pharmacokinetics of oral meloxicam and gabapentin in the bovine lameness study (Example 6); conditions: gabapentin 15 mg/kg PO with meloxicam; Period 1, single dose
[2] = gabapentin powder 15 mg/kg PO with meloxicam 0.5 mg/kg, mean
[3] = gabapentin powder 15 mg/kg PO with meloxicam 0.5 mg/kg, median
[4] = gabapentin whole capsules 10 mg/kg PO, mean
[5] = gabapentin whole capsules 10 mg/kg PO, median

For “1-(aminomethyl) cyclohexane acetic acid [gabapentin]”, the Tmax [1] was 16 h, the adverse effects (after oral administration of gabapentin (10 mg/kg)) was “No adverse effects were noted” and the AUC [2] was 70290 ng·h/mL. The AUC extrapolated [2] was 1.63%, the AUMC [2] was 1170.45 h * h * μg/mL and the Cl/F [2] was 3.88 mL/min/kg. The Cmax [2] was 3570 ng/mL, the MRT [2] was 17.05 h and the λz [2] was 0.09 h⁻¹. For the same substance, the AUC [3] was 71030 ng·h/mL, the AUC extrapolated [3] was 1.1% and the AUMC [3] was 1127.2 h * h * μg/mL. It also gave a Cl/F [3] of 3.52 mL/min/kg, a Cmax [3] of 3700 ng/mL and an MRT [3] of 16.2 h. The “T½ λz” value [3] was 7.4 h, the λz [3] was 0.094 h⁻¹ and the AUC [4] was 59730 ng·h/mL. It also gave an AUC extrapolated [4] of 27.78%, an AUMC [4] of 1273.15 h * h * μg/mL and a Cl/F [4] of 3.42 mL/min/kg. For the same substance, the Cmax [4] was 2970 ng/mL, the MRT [4] was 19.82 h and the “T½ λz” value [4] was 11.02 ± 3.68 h. For the same substance, the λz [4] was 0.08 h⁻¹, the AUC [5] was 61900 ng·h/mL and the AUC extrapolated [5] was 24.4%. It also gave an AUMC [5] of 1102.1 h * h * μg/mL, a Cl/F [5] of 2.8 mL/min/kg and a Cmax [5] of 2900 ng/mL. For the same substance, the MRT [5] was 18.1 h, the “T½ λz” value [5] was 9.2 h and the λz [5] was 0.1 h⁻¹.
